# Values quoted from earlier work as cited in patent EP4052553A1, “AGRICHEMICAL COMPOSITION FOR TREATING SEEDS AND USE THEREOF” (priority 2019, dated 2021).
# Settings: distilled water at 20°C
substance,measurement,value
oxadiargyl,aqueous solubility,0.37 ppm
